Measurements as given in US6333428A, “6-fluorobicyclo[3.1.0]hexane derivatives” (Taisho Pharmaceutical Co., Ltd., priority 1998, dated 2001).

Protein sequences, listed by entry. Tags and fused reporters are not part of them. Residues count along the entry.
UniProt P31421, 19-872: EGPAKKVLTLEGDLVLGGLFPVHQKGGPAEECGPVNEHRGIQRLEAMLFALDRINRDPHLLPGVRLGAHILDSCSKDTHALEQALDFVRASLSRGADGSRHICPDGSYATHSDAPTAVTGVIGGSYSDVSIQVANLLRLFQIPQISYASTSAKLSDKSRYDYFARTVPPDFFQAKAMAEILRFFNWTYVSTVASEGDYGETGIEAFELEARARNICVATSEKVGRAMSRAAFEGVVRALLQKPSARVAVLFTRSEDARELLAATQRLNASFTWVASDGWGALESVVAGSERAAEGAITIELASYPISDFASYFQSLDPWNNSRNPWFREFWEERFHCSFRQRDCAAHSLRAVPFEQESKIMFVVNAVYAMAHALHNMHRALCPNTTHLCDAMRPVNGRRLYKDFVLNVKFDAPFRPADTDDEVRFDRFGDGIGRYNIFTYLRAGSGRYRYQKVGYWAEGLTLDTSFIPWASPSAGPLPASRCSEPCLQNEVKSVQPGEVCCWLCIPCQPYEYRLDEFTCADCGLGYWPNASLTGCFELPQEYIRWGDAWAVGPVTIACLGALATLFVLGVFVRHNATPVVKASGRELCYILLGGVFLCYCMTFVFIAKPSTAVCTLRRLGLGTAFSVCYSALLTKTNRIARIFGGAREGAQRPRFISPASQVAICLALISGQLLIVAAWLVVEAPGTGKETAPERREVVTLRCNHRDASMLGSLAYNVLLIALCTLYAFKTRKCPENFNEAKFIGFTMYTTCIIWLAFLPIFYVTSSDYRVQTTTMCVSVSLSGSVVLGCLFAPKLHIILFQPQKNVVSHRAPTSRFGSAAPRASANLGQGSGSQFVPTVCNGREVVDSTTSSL

Target: T1, metabotropic glutamate receptors mG1uR2 (Rattus norvegicus, UniProt P31421)
T1 construct: expressed in transfected cells
Assay: Effect of Test Compounds on cAMP Accumulation (inhibition of Forskolin-stimulated cAMP accumulation in CHO cells stably expressing mGluR2)
Format: cell-based
Protocol: After the medium was replaced with an L-glutamine free medium, they were cultured for 4 hours, and the supernatant liquid was aspirated. After adding 150 μl of PBS(+)-IBMX (10 mM PBS(-), 1 mM MgC12,1 mM CaCl2, 1 mM IBMX), incubation was conducted at 37° C. under the presence of 5% CO2 for 20 minutes. Once again the supernatant liquid was suctioned off, 60 μl of 10^-5 M Forskolin and PBS (+)-IBMX containing the specimens listed in Table 1 between 10^-10 and 10^-4 M were added, incubation was carried out for 15 minutes at 37° C. under the presence of 5% CO2, and a study was carried out for the inhibitory effect of the agonists on the Forskolin stimulation cAMP accumulation quantity [for control, the conditions were set to Forskolin with no addition of the compounds (Tanabe et al., Neuron, 8, 169-179 (1992))]. The reactions were halted by adding 100 μl of ice-cooled ethanol, the entire quantity of the supernatant liquid was collected in a separate plate, then was dried up at normal temperature with an evaporator, and was kept at -20° C. In the dried-up samples, the quantity of cAMP was measured using a cAMP EIA kit (from the Amasham company). The control value was subtracted from each cAMP quantity.

N[C@@]1(C(=O)O)CC[C@H]2[C@H](C(=O)O)[C@H]21 [LY354740, (+)-(1S, 2S, 5R, 6S)-2-aminobicyclo [3.1.0]hexane-2,6-dicarboxylic acid, reference compound]
IC50: 18.7 nM
